Here are results for 1 substance from paper PMC6021390, “A promiscuous cytochrome P450 aromatic O-demethylase for lignin bioconversion” (Nature Communications, 2018).

This data set deals with reduced nicotinamide adenine dinucleotide. Kind of data set: purified protein, by the assay type. Conditions: pH 7.5; 25.0 °C.

Regarding GcoB (Amycolatopsis sp. ATCC 39116), the Km – broadly, the substrate concentration at which the rate is half of its maximum – turned out to be 16 µM.
